Reference: article PMC7660780 (Journal of the American Heart Association: Cardiovascular …, 2020)

Assay: Population pharmacokinetic model
Assay type: in vivo, human

Q: What does the source list for `NCC(=O)Nc1cncc(-c2nn3c(=O)cc(N4CCNCC4)nc3s2)c1` [RUC‐4]?
A: CL/F (apparent total clearance), geometric mean (SC, All Subjects): 0.485 L/min; Vc/F (apparent central volume of distribution), geometric mean (SC, All Subjects): 48.4 L; apparent total clearance, geometric mean (cohort with aspirin): 0.484 L/min; apparent total clearance, geometric mean (cohort without aspirin): 0.487 L/min
